US20060106014A1, “Methods for treating diabetes” (priority 2004, published 2006)

Chains of the proteins cited; added tags and fusions are not shown. Lines headed by an entry give the natural chain unless they say otherwise; changes in a name come on top.
UniProt P16050: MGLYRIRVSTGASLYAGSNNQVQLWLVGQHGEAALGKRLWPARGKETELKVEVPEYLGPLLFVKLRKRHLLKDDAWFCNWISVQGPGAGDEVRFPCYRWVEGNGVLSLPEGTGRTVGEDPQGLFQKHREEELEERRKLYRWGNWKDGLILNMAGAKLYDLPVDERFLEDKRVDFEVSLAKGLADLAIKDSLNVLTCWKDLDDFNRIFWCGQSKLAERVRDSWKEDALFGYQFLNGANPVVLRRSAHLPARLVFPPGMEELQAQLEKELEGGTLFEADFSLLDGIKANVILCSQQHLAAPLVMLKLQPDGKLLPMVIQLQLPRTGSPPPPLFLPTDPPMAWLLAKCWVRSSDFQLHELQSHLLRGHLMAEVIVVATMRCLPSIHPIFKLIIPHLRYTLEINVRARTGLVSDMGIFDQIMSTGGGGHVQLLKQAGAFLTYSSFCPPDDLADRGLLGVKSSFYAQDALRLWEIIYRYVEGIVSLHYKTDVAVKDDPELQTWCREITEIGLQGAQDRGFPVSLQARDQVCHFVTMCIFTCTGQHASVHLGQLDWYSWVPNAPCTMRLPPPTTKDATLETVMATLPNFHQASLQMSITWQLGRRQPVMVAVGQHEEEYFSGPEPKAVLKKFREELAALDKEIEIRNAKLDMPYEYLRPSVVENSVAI

Legend:
15-lipoxygenase = 15-lipoxygenase (Homo sapiens, UniProt P16050); settings: background; cited from earlier work
[1] = tested on: NIDDM male mice (C57BLKS/J-m+/+Lepr db); experiment: Therapeutic study: serum glucose levels in diabetic animals; type: in vivo; settings: 30 mg/kg, i.p. twice daily, p<0.01
Procedure: In vivo evaluation of the role of dual inhibitor of both 5-LO and 12/15-LO enzymes in the reduction of serum glucose levels and insulin was performed in C57BLKs/J-m+/+Lepr db mice, a non-insulin dependent diabetic mellitus (NIDDM) model, as described in Examples. […] […].
Non-insulin dependent diabetic mellitus (NIDDM) male mice (C57BLKS/J-m+/+Lepr db), weighing 45±5 g (10 weeks of age) and provided by Institute for Animal Reproduction (IAR, Japan), were used.
Groups of 10 non-insulin dependent diabetic mellitus (NIDDM) male mice (C57BLKS/J-m+/+Lepr db), weighing 45±5 g and 10-weeks-old, were used. […] Using blood samples collected from the orbital sinus, pre-treatment serum glucose and insulin levels were determined 24 hours prior to the first dosing on day 0. Post-treatment glucose and insulin levels were detected 4 hours after dosing on days 11 and 14. […] Serum glucose and Insulin (on days 0, 11 and 14) levels were determined by enzymatic (Mutaratase-GOD) and ELISA (mouse insulin assay kit) methods, respectively. The percentage of post-treatment relative to pre-treatment group values obtained on days 11 and 14 were analyzed using One Way ANOVA followed by Dunnett's test for comparison between vehicle and treated groups. […]

## c1ccc2c(c1)SCc1c-2[nH]c2ccccc12 [B, PD 146176, reference compound]
15-lipoxygenase
  15-lipoxygenase inhibition / specificity as reported in the literature: relatively specific
[1]
  reduction in serum glucose relative to the respective vehicle control group (FIG. 2): reduction in serum glucose
